We go through one molecule from publication PMC6454087, “A Variant of the Histone-Binding Protein sNASP Contributes to Mouse Lupus” (Frontiers in Immunology, 2019).

One assay has as its target mouse histone H3.1 (mouse, UniProt P68433 1-136). Kind of assay: BLI; Octet K2, 30 C; sNASP WT or variant immobilised on aminopropylsilane (APS) biosensors, histones in assay buffer at various concentrations (62.5 to 1,000 nM shown for H4), association 240 s; n = 4. To be noted: both partners purified.
Assay [1] concerns the target mouse H3.1/H4 tetramer complex (mouse, UniProt P68433 1-136; P62806 1-103). The description is as above. To be noted: both partners purified.

B1: mouse WT sNASP (somatic nuclear autoantigenic sperm protein), B6 allele (natural protein)
chain: MATESTAAAAIAAELVSADKIEDAPAPSTSADKMESLDVDSEAKKLLGLGQKHLVMGDIPAAVNAFQEAASLLGKKYGETANECGEAFFFYGKSLLELARMENGVLGNALEGVHVEEEEGEKTEDESLVENNDNVDETEGSEEEDRENDKAEETPNESVLEKKSLQENEEEEIGNLELAWDMLDLAKIIFKRQETKEAQLYAAQAHLKLGEVSVESENYIQAVEEFQACLSLQEQYLEAHDRLLAETHYQLGLAYGYNSQYDEAVAQFGKSIDVIEKRMAVLHEQMKEAEGSFTEYEKEIEELKELLPEIREKIEDAKESQRSGNVAELALKATLVESSTSGFTPSGAGASVSMIASRKPTDGASSSNCVTDISHLVRKKRKPEEESPRKDDAKKAKQEPEVNGGSGDAVSSGKEVSENMEAEAENQAESQTAEGTVESAATIKSTAC
Turning to B1, the Kd – broadly, the free concentration of one partner at which half of the binding sites on the other are occupied at equilibrium, for simple one-to-one binding – with mouse histone H3.1 came out at 13.6 nM; in assay [1], 40.2 nM. Besides, the values for the kon (with mouse histone H3.1; in assay [1]) were 8690 M⁻¹ s⁻¹ and 24400 M⁻¹ s⁻¹, respectively.
